# Reference: PubChem BioAssay AID1645882 (National Center for Advancing Translational Sciences (NCATS), 2021)
# Sequences of proteins named here, by UniProt entry; tags and fusion partners are left off.
# UniProt O95398, whole entry: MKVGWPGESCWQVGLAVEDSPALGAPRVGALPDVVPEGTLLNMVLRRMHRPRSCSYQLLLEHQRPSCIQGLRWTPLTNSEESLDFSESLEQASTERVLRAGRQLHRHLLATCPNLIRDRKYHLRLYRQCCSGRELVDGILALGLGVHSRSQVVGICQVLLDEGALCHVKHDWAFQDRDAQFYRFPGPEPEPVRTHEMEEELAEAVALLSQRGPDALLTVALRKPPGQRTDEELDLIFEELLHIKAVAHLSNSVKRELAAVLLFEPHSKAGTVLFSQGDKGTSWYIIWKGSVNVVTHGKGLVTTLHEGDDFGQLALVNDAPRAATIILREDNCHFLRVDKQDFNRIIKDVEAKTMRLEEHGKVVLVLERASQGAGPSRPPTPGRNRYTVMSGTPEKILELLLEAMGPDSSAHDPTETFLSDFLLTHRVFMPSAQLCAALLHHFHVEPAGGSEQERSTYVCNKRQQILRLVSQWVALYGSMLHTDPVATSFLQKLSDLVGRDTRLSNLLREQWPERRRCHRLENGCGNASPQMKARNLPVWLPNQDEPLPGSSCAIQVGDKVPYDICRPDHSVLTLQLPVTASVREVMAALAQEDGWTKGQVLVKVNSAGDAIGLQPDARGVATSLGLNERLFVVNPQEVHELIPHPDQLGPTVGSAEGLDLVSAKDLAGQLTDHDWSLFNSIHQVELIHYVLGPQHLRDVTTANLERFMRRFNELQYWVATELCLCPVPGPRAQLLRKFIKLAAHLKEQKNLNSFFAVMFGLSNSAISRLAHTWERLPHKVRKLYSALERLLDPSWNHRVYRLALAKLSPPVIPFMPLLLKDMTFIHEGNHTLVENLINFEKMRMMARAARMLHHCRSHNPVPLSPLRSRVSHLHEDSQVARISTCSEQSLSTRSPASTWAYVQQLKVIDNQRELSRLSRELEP
# The list shows a part of the results, in another mix than the full data. Results filed as inconclusive are left out. Calls of active or inactive are those of the source. Calls come from the whole dose curve; as a rule, active = well fitted inhibition curve with a large enough effect; inconclusive = small, poorly fitted or top-dose-only effect; inactive = no such curve, though single readings can be large or run the other way.
# Target: Rap guanine nucleotide exchange factor 3 (Homo sapiens) (UniProt O95398)
# Assay: Validation qHTS for antagonist of cAMP-regulated guanine nucleotide exchange factor 3 (EPAC1); note: nearly all actives have a fitted effect of over 75% in size
# Settings: EPAC1 Rap1B-BODIPY-GDP exchange, fluorescence
# From the text: Assay Provider (PI): Xiaodong Cheng Ph.D.
# The University of Texas Medical Branch, […], TX
# In multi-cellular eukaryotic organisms, the effects of cAMP are transduced by two ubiquitously-expressed intracellular cAMP receptors, the classic protein kinase A/cAMP-dependent protein kinase (PKA/cAPK) and the more recently discovered exchange protein directly activated by cAMP/cAMP-regulated guanine nucleotide exchange factor (EPAC/cAMP-GEF). Both PKA and EPAC are ubiquitously expressed in all tissues, and an increase in intracellular cAMP levels will lead to the activation of both PKA and EPAC. Therefore, careful dissections of the individual role and relative contribution of EPAC and PKA within the overall cAMP signaling in various model systems are critical for further elucidating the mechanism of cAMP signaling. To date no EPAC-specific antagonists and agonist, as well as isoform-specific agonists have been reported, and developing EPAC-specific pharmacological probes to determine the physiological functions that EPAC play in the overall cAMP-mediated signaling remains a major challenge within the research field. Furthermore, identified regulators of EPAC may lead to new mechanism-based therapeutic strategies specifically targeting the EPAC / cAMP-signaling components as EPAC has been implicated to play important roles in major human pathological conditions such as diabetes, heart disease, and cancer.
# This qHTS will be used to screen the Molecular Libraries Small Molecule Repository (MLSMR) as a concentration-titration series using the NCGC unique quantitative screening (qHTS) platform to find activators for EPAC1. In addition, this assay will also be used as a counterscreen for the EPAC2 qHTS. This fluorescent based assay is developed and validated for EPAC1 that measures exchange using EPAC effector Rap1 complex with BODIPY-GDP, a GDP analog with a tethered fluorophores. Activators are identified by monitoring the change in fluorescence signal as the exchanged free BODIPY-GDP has a reduced fluorescence compared to Rap1-bound BODIPY-GDP. Increase in signal (activation) is the desired outcome for the EPAC1 agonist while no activity in this assay is desired for the EPAC2 agonist counterscreen.
# [1] de Rooij, J., Zwartkruis, F. J., Verheijen, M. H., Cool, R. H., Nijman, S. M., Wittinghofer, A., and Bos, J.L. (1998) Nature 396, 474-477.
# Briefly, three uL of reagents (100 nM EPAC1, 250 nM RAP1B-BODIPY-GDP, 50 uM GDP) were dispensed into a 1536-well Greiner black solid-bottom medium binding assay plate. Controls and test compounds (23 nL) were transferred to the plate via a Kalypsys pin tool equipped with a 1536-pin array. The plates were centrifuged at 1,000 rpm for 15 seconds followed by 5 minute incubation at room temperature. The assay plates were read at 5 minute intervals for 30 minutes in the ViewLux plate reader using 480nm excitation and 540nm emission filters. The results were normalized to the […] positive control ATA and DMSO.
structure (smiles),measurement,setting,value
CCOP(=O)(CC)Oc1ccc([N+](=O)[O-])cc1 (configuration not stated),"activity change, negative = inhibition",at 150 µM (top of the series),inactive: 23.7%
Cc1cccc([N+](=O)[O-])c1[N+](=O)[O-],"activity change, negative = inhibition",at 320 µM (top of the series),inactive: 34%
CCN(CCCl)Cc1ccccc1C,"activity change, negative = inhibition",at 150 µM (top of the series),inactive: 22.3%
C/C1=C2N=C(/C=C3N=C(/C(C)=C4\[N-][C@@](C)([C@@H]5N=C1[C@](C)(CCC(=O)NC[C@@H](C)OP(=O)([O-])O[C@H]1[C@@H](O)[C@@H](n6cnc7cc(C)c(C)cc76)O[C@@H]1CO)[C@H]5CC(N)=O)[C@@](C)(CC(N)=O)[C@@H]4CCC(N)=O)[C@@](C)(CC(N)=O)[C@@H]\3CCC(N)=O)C(C)(C)[C@@H]/2CCC(N)=O.[C-]#N.[Co+3],"activity change, negative = inhibition",at 75.8 µM (top of the series),inactive: 6.61%
OCCSCCO,"activity change, negative = inhibition",at 150 µM (top of the series),inactive: -18%
CC(C)OP(=O)(F)OC(C)C,"activity change, negative = inhibition",at 150 µM (top of the series),inactive: -8.66%
O=[N+]([O-])[O-].[NH4+],"activity change, negative = inhibition",at 150 µM (top of the series),inactive: 16.9%
CN(C)CCS,"activity change, negative = inhibition",at 150 µM (top of the series),inactive: 9.56%
CC(C)N(CCCl)C(C)C,"activity change, negative = inhibition",at 150 µM (top of the series),inactive: -8.49%
O=[N+]([O-])OCC(CO[N+](=O)[O-])(CO[N+](=O)[O-])CO[N+](=O)[O-],"activity change, negative = inhibition",at 150 µM (top of the series),inactive: 2.46%
O=[N+]([O-])c1cccc([N+](=O)[O-])c1,"activity change, negative = inhibition",at 150 µM (top of the series),inactive: -0.322%
same,"activity change, negative = inhibition",at 320 µM (top of the series),inactive: 21.9%
